# Measurements published in patent US9284362B2, “α/β-peptide mimics of Z-domain peptides” (Wisconsin Alumni Research Foundation, priority 2014, dated 2016).
# The chains behind the UniProt entries cited, without tags or fusion partners. Residues count along the entry.
# UniProt P15692, 27-191 isoform P15692-4: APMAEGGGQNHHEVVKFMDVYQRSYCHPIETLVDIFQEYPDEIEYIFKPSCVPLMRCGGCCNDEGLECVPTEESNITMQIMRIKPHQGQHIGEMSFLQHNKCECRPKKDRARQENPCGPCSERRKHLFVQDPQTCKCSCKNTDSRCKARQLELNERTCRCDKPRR
# UniProt P01375, 77-233 limits assumed: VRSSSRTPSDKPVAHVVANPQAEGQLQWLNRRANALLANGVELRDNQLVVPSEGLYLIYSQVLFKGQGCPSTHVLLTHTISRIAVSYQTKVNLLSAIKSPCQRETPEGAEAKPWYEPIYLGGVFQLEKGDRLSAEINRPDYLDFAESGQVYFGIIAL
# Tests used:
# VEGF = molecular target: T1, VEGF (Homo sapiens, UniProt P15692); assay: VEGF competition fluorescence polarization (FP) assay; format: binding
# T1 construct: made in house
# [1] = molecular target: T2, TNFα (binding to immobilized TNFR1) (Homo sapiens, UniProt P01375); assay: TNFα/TNFR competition ELISA; settings: Table 14; read-out: TNFa-TNFR ELISA IC50
# T2 construct: purchased R&D Systems 210-TA-020 (TNFα); 636-R1-025 (sTNF RI)
Ki (VEGF),IC50 [1],SMILES
9.5 µM,,CCCC[C@H](NC(=O)[C@H](CCC(=O)O)NC(=O)[C@@H](N)CCCCN)C(=O)N[C@H]1CSSC[C@@H](C(=O)NCC(N)=O)NC(=O)[C@H](CC(=O)O)NC(=O)[C@H](CC(=O)O)NC(=O)[C@H]([C@@H](C)CC)NC(=O)[C@H]([C@@H](C)CC)NC(=O)[C@H](CO)NC(=O)[C@H](Cc2c[nH]c3ccccc23)NC(=O)[C@H]([C@@H](C)CC)NC(=O)[C@H](CCCCN)NC(=O)[C@H](C)NC(=O)[C@H](Cc2c[nH]cn2)NC(=O)[C@H](Cc2ccccc2)NC(=O)[C@H](CCC(N)=O)NC(=O)[C@H](CCC(N)=O)NC(=O)[C@H](CC(=O)O)NC(=O)[C@H](CC(N)=O)NC(=O)[C@H](CC(C)C)NC(=O)[C@H](CC(N)=O)NC(=O)[C@@H]2CCCN2C(=O)[C@H](CC(=O)O)NC(=O)[C@H](CC(C)C)NC(=O)[C@H](C)NC(=O)[C@H](C)NC(=O)[C@H](CCC(=O)O)NC(=O)[C@H]([C@@H](C)CC)NC(=O)[C@H](C)NC(=O)[C@H](CCCNC(=N)N)NC(=O)[C@H](C)NC(=O)[C@H](CC(N)=O)NC1=O [S1]
,0.0062 µM,"CC[C@H](C)[C@@H]1NC(=O)[C@@H](NC(=O)[C@H](Cc2c[nH]c3ccccc23)NC(=O)CNC(=O)[C@H](CC(C)C)NC(=O)[C@H]2CCC[C@@H]2N)CSSC[C@@H](C(=O)N[C@@H](Cc2c[nH]c3ccccc23)C(=O)N[C@H]2CCC[C@@H]2C(N)=O)NC(=O)C2CNCC2NC(=O)[C@H](CC(C)C)NC(=O)[C@H]([C@@H](C)CC)NC(=O)[C@H](CCCCN)NC(=O)C(C)(C)NC(=O)[C@H](CCCNC(=N)N)NC(=O)[C@H](Cc2ccccc2)NC(=O)[C@H](CCC(N)=O)NC(=O)[C@H](CCC(N)=O)NC(=O)[C@H](Cc2c[nH]cn2)NC(=O)[C@H](CC(N)=O)NC(=O)[C@H](CC(C)C)NC(=O)[C@H](CC(N)=O)NC(=O)[C@@H]2CCCN2C(=O)[C@H](CC(=O)O)NC(=O)[C@H]([C@@H](C)O)NC(=O)CNC(=O)C(C)(C)NC(=O)[C@H](CCC(=O)O)NC(=O)CNC1=O (stereo partly drawn) [α/β-TNFα-17, XLGWCIGEAGTDPNLNHQQFRAKILZCWX-NH2]"
